This passage reports EC50 results from US20240189458A1, “METHODS FOR IN VIVO DELIVERY OF MICROBES TO HUMAN MICROENVIRONMENTS” (priority 2021, published 2024).

Sequences of proteins named here, by UniProt entry; tags and fusion partners are left off. A change or cut given only in a name is not applied to a line headed by its entry.
UniProt P0DM80: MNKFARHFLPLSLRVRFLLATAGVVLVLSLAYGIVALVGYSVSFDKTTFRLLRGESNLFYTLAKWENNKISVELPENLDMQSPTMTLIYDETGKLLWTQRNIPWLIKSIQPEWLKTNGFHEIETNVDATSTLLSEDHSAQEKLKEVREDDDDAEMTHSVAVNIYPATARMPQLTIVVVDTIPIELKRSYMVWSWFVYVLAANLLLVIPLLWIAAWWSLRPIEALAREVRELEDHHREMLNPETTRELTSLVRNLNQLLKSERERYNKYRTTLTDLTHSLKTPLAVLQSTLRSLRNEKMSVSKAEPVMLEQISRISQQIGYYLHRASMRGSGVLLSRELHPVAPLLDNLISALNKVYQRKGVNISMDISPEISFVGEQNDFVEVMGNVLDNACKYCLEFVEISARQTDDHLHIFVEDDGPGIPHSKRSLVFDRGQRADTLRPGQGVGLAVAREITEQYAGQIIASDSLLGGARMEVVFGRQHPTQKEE

Assay [1] addresses T1, S. Typhimurium PhoPQ (Salmonella typhimurium, UniProt P0DM80).
T1 construct: expressed in transfected cells; host or cells: E. coli BW30007 (lacks E. coli phoPQ) with the cassette integrated in the genome = strain KB1
The experiment in a line: PvirK-mNG reporter of PhoPQ activity in engineered E. coli KB1, flow cytometry. It is filed as cell-based. Conditions: LL-37 added, read-out: half-maximal activation of PvirK-mNG reporter. An excerpt: Porting S. Typhimurium PhoPQ into E. coli: To enable high-throughput screening of AMP-PhoQ interactions, an E. coli reporter strain of S. Typhimurium PhoPQ activity was engineered (24). First, a genomic integration cassette was constructed wherein S. Typhimurium phoP and phoQ are expressed from constitutive promoters and other well-characterized gene regulatory elements (24). The resulting engineered PhoPQ expression cassette was integrated into the genome of E. coli BW30007, which lacks the E. coli phoPQ ortholog, resulting in strain KB1. Next, a plasmid-based transcriptional reporter of PhoPQ activity was developed. When overexpressed, PhoP can activate target promoters independently of PhoQ. […] These plasmids were transformed into BW30007 and measured sfGFP fluorescence in response to varying levels of aTc. […]
Next, a plasmid was constructed wherein PvirK controls expression of an mNeonGreen (mNG) fluorescent reporter gene, which produces a fluorescent protein that is brighter than sfGFP. […] LL-37 response was also measured in two negative control strains: an S. Typhimurium strain lacking phoQ and a KB1 derivative in which the catalytic histidine of PhoQ was mutated to an alanine (KB1 PhoQ H277A).
A general note: In flow cytometry, cells or beads pass a laser one at a time.

The target of assay [2] is T1, S. Typhimurium PhoPQ. In words: PvirK-mNG reporter of PhoPQ activity in S. Typhimurium, flow cytometry. It is filed as cell-based. To be noted: LL-37 added, read-out: half-maximal activation of PvirK-mNG reporter. As to the method:
Next, a plasmid was constructed wherein PvirK controls expression of an mNeonGreen (mNG) fluorescent reporter gene, which produces a fluorescent protein that is brighter than sfGFP. This plasmid was transformed into both S. Typhimurium and KB1 to measure PhoPQ activation by the positive control AMP LL-37. It observed that this PvirK-mNG reporter system is activated in a similar manner in both organisms (24), with half-maximal activation occurring at 2.01±0.43 and 1.16±0.10 μM LL-37, respectively. LL-37 response was also measured in two negative control strains: an S. Typhimurium strain lacking phoQ and a KB1 derivative in which the catalytic histidine of PhoQ was mutated to an alanine (KB1 PhoQ H277A).

Regarding LL-37, the EC50 at S. Typhimurium PhoPQ [1] is 1.16 ± 0.1 µM; on S. Typhimurium PhoPQ [2] it was 2.01 ± 0.43 µM.
